Solubility data for three molecules are collected here from patent US12202849B2, “Crystalline forms of tenofovir alafenamide” (Gilead Sciences, Inc., priority 2017, dated 2025).

As usually defined, the Solubility is the concentration that dissolves in the medium under given conditions.

For this series the following is noted: deionized water, approximately 22° C., room temperature.
As for `CC(C)OC(=O)C(C)NP(=O)(COC(C)Cn1cnc2c(N)ncnc21)Oc1ccccc1.O=C(O)c1ccc2ccccc2c1O.O=C(O)c1ccc2ccccc2c1O` (stereo not drawn) [TAF Bis-xinafoate, Tenofovir Alafenamide Bis-Xinafoate], the Solubility came to 200 µg/mL.

As to `CC(C)OC(=O)[C@H](C)N[P@](=O)(CO[C@H](C)Cn1cnc2c(N)ncnc21)Oc1ccccc1.CC(C)OC(=O)[C@H](C)N[P@](=O)(CO[C@H](C)Cn1cnc2c(N)ncnc21)Oc1ccccc1.O=C(O)c1cc2ccccc2c(Cc2c(O)c(C(=O)O)cc3ccccc23)c1O` [TAF Hemipamoate, Tenofovir Alafenamide Hemipamoate], the Solubility was determined as 150 µg/mL. This Solubility and that of the molecule before are within 1.5-fold of each other.

The molecule `CC(C)OC(=O)C(C)NP(=O)(COC(C)Cn1cnc2c(N)ncnc21)Oc1ccccc1.O=C(O)c1cc(=O)[nH]c(=O)[nH]1` (stereo not drawn) [TAF Orotate, Tenofovir Alafenamide Orotate] yielded a Solubility of 1700 µg/mL.
